Values of other authors, collected in patent publication US12491259B2, “Anti-variable MUC1* antibodies and uses thereof” (Minerva Biotechnologies Corporation, priority 2022, dated 2025).

System: HER2+ breast cancers
Conditions: reported; cited from earlier work

What does the source list for Enhertu?
increase of survival of metastatic breast cancer patients: nearly two years; patients with treatment induced pneumonitis: up to 16%
